Biological target: MOR‐H297^6.52A (μ‐opioid receptor mutated at H297^6.52 to A) (Rattus norvegicus, UniProt P33535, H297A)
Test: biochemical
Parameters: expressed in transfected cells; linearized pcDNA3.1)
Settings: pH 7.4, read-out: E max (maximum intrinsic activity), [35S]-GTPγS binding

Chains of the proteins cited; added tags and fusions are not shown.
UniProt P33535, whole entry H297A: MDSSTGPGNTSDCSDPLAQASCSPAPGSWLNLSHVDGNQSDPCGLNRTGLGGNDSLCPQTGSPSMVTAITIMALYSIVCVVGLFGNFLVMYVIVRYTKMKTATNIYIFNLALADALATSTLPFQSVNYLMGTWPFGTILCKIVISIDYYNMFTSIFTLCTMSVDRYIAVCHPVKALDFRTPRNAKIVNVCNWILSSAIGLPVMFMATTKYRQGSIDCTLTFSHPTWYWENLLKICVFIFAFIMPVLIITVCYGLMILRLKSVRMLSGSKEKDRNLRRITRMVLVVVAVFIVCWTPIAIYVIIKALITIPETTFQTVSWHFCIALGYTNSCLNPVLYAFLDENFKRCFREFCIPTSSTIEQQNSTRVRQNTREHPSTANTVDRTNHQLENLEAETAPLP

Work on C[C@@H](NC(=O)[C@@H](N)Cc1ccc(O)cc1)C(=O)NCC(=O)N(C)[C@@H](Cc1ccccc1)C(=O)NCCO [DAMGO, [D‐Ala2,N‐Me‐Phe4,Gly5‐ol]‐enkephalin] yielded an Emax of 114 ± 3.5%.
